Data published in PMC11999149.
pKd: −log10 of the molar value. Where two headings read alike, the source gives them in different places.

Target: membrane truncated soluble E2 (sE2, residues 384-645) of the H77 isolate (hepatitis C virus, isolate H77, genotype 1a) (UniProt P27958)
Assay: SPR

Substance AR3A Fab (reference) has a koff (Fab) of 0.00141 s⁻¹.

In the case of AR3A full-length IgG (reference), the pKd was 9.08 and the koff was 0.000291 s⁻¹.
